This experiment deals with recombinant, human, C-terminally-His tagged NAMPT (Homo sapiens, UniProt P43490). Nature of the experiment: Time-Resolved Fluorescence Resonance Energy Transfer (TR-FRET) binding assay of NAMPT.

Protein sequences, listed by entry. Tags and fused reporters are not part of them. Lines headed by an entry give the natural chain unless they say otherwise; changes in a name come on top.
UniProt P43490: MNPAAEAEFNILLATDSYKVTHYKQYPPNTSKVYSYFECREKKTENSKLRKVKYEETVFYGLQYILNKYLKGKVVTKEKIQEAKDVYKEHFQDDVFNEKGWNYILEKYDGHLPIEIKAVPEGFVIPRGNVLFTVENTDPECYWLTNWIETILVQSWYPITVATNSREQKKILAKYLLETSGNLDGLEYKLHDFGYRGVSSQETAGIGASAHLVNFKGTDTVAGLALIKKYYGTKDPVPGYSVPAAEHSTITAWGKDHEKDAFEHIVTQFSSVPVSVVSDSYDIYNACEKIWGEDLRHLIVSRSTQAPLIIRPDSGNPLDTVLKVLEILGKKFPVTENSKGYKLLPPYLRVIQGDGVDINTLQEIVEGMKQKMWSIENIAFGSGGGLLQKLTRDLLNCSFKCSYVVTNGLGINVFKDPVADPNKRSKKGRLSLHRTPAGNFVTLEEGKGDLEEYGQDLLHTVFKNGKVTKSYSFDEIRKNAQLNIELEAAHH

The record followed here is patent US20170253562A1, “Nampt Inhibitors” (AbbVie Inc., priority 2011, published 2017).

The IC50 is the concentration at which inhibition is half-maximal.

Turning to `CC(O)CNC(=O)c1ccc(NC(=O)N2Cc3ccccc3C2)cc1` (stereo not shown) [Example 2, N-{4-[(2-hydroxypropyl)carbamoyl]phenyl}-1,3-dihydro-2H-isoindole-2-carboxamide], the IC50 amounted to 26.4 nM.
